# A selection: hits, their analogues and other compounds. The true share with any hit is near 1.2%.
# Yeast UUG start = yeast start codon fidelity modulation | S. cerevisiae UUG-firefly luciferase reporter, luminescence/redox ratio | activity score, % at 18.7 µM | 0.13% of 350,000 active | AID 602363;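 active means replicate mean at a twofold rise or more, about +100% in these data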;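 further: firefly luciferase made from a UUG start codon reports start codon fidelity; reporter light over untreated wells divided by growth signal over untreated wells; some hits fall short of that in this replicate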
# Cneo AK release = causes C. neoformans cell lysis | adenylate kinase release luminescence, 4 h; normalised: neutral wells 0, clomiphene wells 100 | lysis activity, % at 15 µM | 0.2% of 360,000 active | AID 651654;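 active means mean lysis activity across replicates of at least 80%, whatever share of replicates individually reach that level; inactive means mean lysis activity below 80%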
#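 Material – Cryptococcus neoformans yeast cells · Quantity – 5 × 10^6 yeast cells/mL · Buffer or medium – YPD medium · Compound – single dose · Timing – 4 h static compound exposure, 37 °C, read 1 h post-reagent · Signal – adenylate kinase release luminescence · Read-out basis – lysis from increased AK signal · Benchmarks – Clomiphene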
# miR-122 sensor = miR-122 inhibition in Huh7 cells; activation (reporter increase), % at 12.5 µM; Huh7 miR-122 Renilla luciferase sensor, 48 h; neutral wells = 0, positive control = 100; 0.3% of 340,000 active;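 active means mean replicate activation score at least 90 and every replicate individually at or above 90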;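 further: higher luciferase means less miR-122 activity so hits act as miR-122 inhibitors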
# Glyco luc inh = blocks N-linked glycosylation in D54 reporter cells; 0.23% of 360,000 active; AID 588692; D54 ERlucT glycosylation luciferase reporter, 24 h; percent of 100 nM tunicamycin response; reporter increase, % at 12.5 µM;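 active means mean luciferase reporter signal, scaled so untreated is 0 and the glycosylation-blocking control 100, at or above a set limit in every replicate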;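 further: luciferase carries N-glycosylation sites so blocking glycosylation raises the light; 0% = median of neutral control wells and 100% = median of 100 nM tunicamycin wells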
# Statin myotox sup = protects C2C12 myotubes from simvastatin toxicity | ATP luminescence, 48 h; scaled: DMSO 0, geranylgeraniol control 100 | 0.78% of 330,000 active | rescue of ATP level, % at 7.49 µM;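 active means mean ATP rescue above about 67%, or every replicate alone reaching that limit, limit read from the data, passing the limit was not always enough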;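 further: myotubes were challenged with 10 µM simvastatin during compound exposure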
# * hit, by the source's call; . = no result given; [ ] = another dose, or the depositor's remark.
SMILES,Yeast UUG start,Cneo AK release,miR-122 sensor,Glyco luc inh,Statin myotox sup
O=C(C[C@@H]1CC[C@@H]2[C@H](COC[C@@H](O)CN2Cc2ccc(F)cc2)O1)NCCc1ccccc1,-11,14,-7[16.7 µM],.,24
Cc1ccc(S(=O)(=O)Nc2ccc3c(c2)C(=O)N([C@H](C)CO)C[C@@H](C)[C@@H](CN(C)Cc2ccc(C(=O)O)cc2)O3)cc1,-5,6,-3[16.7 µM],.,19
Cc1noc(C)c1NC(=O)N(C)C[C@@H]1Oc2ccc(NC(=O)Cc3ccccc3)cc2CC(=O)N([C@@H](C)CO)C[C@@H]1C,19,6,2[16.7 µM],.,-24
Cc1c(C(Nc2ccccn2)c2ccccc2)c(=O)n(-c2ccccc2)n1C (stereo not drawn),-16,10,1,-1,81*
CCOc1ccc2nc(NCCNC(=O)Nc3cccc(C)c3)c(C#N)cc2c1,0,11,-2,42*,-46
Cc1cc(C)c(C)c(S(=O)(=O)Nc2ccc3cn[nH]c3c2)c1C,-12,6,157*,-2,-6
COC(=O)c1sc(S(=O)(=O)Nc2ccc3cn[nH]c3c2)c(C(=O)OC)c1C,5,3,28,4,117*
CCCNC(=O)C[C@@H]1CC[C@H]2[C@@H](COC[C@H](O)CN2Cc2ccccc2F)O1,.,97*,0[16.7 µM],.,7
C[C@@H](NC(=O)C[C@@H]1CC[C@H]2[C@@H](COC[C@@H](O)CN2Cc2cc(F)ccc2F)O1)c1ccccc1,34,101*,6[16.7 µM],.,12
C[C@@H](NC(=O)C[C@@H]1CC[C@@H]2[C@H](COC[C@H](O)CN2Cc2cc(F)ccc2F)O1)c1ccccc1,29,112*,4[16.7 µM],.,12

# Part of the list above, set out differently:
> CCOc1ccc2nc(NCCNC(=O)Nc3cccc(C)c3)c(C#N)cc2c1
  Yeast UUG start = 0 | Cneo AK release = 11 | miR-122 sensor = -2 | Glyco luc inh = 42* | Statin myotox sup = -46

> Cc1cc(C)c(C)c(S(=O)(=O)Nc2ccc3cn[nH]c3c2)c1C
  Yeast UUG start = -12 | Cneo AK release = 6 | miR-122 sensor = 157* | Glyco luc inh = -2 | Statin myotox sup = -6

> COC(=O)c1sc(S(=O)(=O)Nc2ccc3cn[nH]c3c2)c(C(=O)OC)c1C
  Yeast UUG start = 5 | Cneo AK release = 3 | miR-122 sensor = 28 | Glyco luc inh = 4 | Statin myotox sup = 117*

> CCCNC(=O)C[C@@H]1CC[C@H]2[C@@H](COC[C@H](O)CN2Cc2ccccc2F)O1
  Yeast UUG start = . | Cneo AK release = 97* | miR-122 sensor = 0[16.7 µM] | Glyco luc inh = . | Statin myotox sup = 7

# Next structures:
SMILES,Yeast UUG start,Cneo AK release,miR-122 sensor,Glyco luc inh,Statin myotox sup
COc1ccc2c(c1OC)C(=O)N(c1ccccn1)C2,-16,-3,7,-2,101*
COc1ccccc1N1Cc2ccc(OC)c(OC)c2C1=O,-7,-4,1,1,10
COc1ccc(-n2c(SCC(=O)Nc3ccc4c(c3)OCO4)nc3ccccc3c2=O)cc1,.,.,-6,-5,118*
CCOc1ccc(-n2c(SCC(=O)Nc3ccc4c(c3)OCO4)nc3ccccc3c2=O)cc1,-8,2,-2,-5,.
CCOc1ccc(N(CC(=O)NCc2ccco2)S(=O)(=O)c2ccc(OC)c(OC)c2)cc1,2,5,7,-1,108*
COc1ccc(N(CC(=O)NCc2ccco2)S(=O)(=O)c2ccc(OC)c(OC)c2)cc1,3,1,4,0,-12
O=C(CN(c1ccc(F)cc1)S(=O)(=O)c1ccccc1)NCc1ccco1,-11,1,-6,0,103*
COc1ccc(-c2csc3ncnc(N4CCN(S(=O)(=O)c5cccc(C(F)(F)F)c5)CC4)c23)cc1,.,.,.,-7,.
COc1ccc(-c2csc3ncnc(N4CCN(S(=O)(=O)c5cccc(Br)c5)CC4)c23)cc1,-18,2,1,-7,77*
CCN(CC)c1ccc(NC(=O)c2cc3ccccc3o2)c(C)c1,3,0,-4,0,159*
COc1ccc(S(=O)(=O)N(C)C[C@@H]2Oc3ncc(-c4cc5ccccc5o4)cc3C(=O)N([C@H](C)CO)C[C@@H]2C)cc1,7,-2,-3[16.7 µM],.,12
C[C@H](CO)N1C[C@H](C)[C@H](CN(C)S(=O)(=O)c2ccc(C#N)cc2)Oc2ncc(-c3cc4ccccc4o3)cc2C1=O,4,-2,-1[16.7 µM],.,95*
C[C@H](CO)N1C[C@H](C)[C@H](CN(C)C(=O)Nc2ccccc2)Oc2ncc(-c3cc4ccccc4o3)cc2C1=O,0,2,-7[16.7 µM],.,92*
CN1CC[C@]23c4ccccc4N[C@H]1[C@]21CCN(C)[C@H]3Nc2ccccc21,1,1,-2,-1,9
COC(=O)C1CC23C=CCN4CCC5(c6ccccc6NC15C2C)C43 (stereo not drawn),4,-1,148*,9,-140
C[C@H](NC(=O)C[C@H]1CC[C@@H](NC(=O)Nc2ccc3c(c2)OCO3)[C@H](CO)O1)c1ccccc1,-12,0,-8[16.7 µM],.,11
C[C@H]1CN([C@@H](C)CO)C(=O)Cc2cc(NS(=O)(=O)c3ccccc3)ccc2O[C@@H]1CN(C)Cc1ccc(Cl)c(Cl)c1,38,58,17[16.7 µM],.,103*
C[C@@H]1CN([C@@H](C)CO)C(=O)Cc2cc(NS(=O)(=O)c3ccccc3)ccc2O[C@@H]1CN(C)Cc1ccc(Cl)c(Cl)c1,17,85*,3[16.7 µM],.,-3
O=C1CC[C@@H]2c3[nH]c4ccc(F)cc4c3CCN12,-11,-3,.,.,.
CC(=O)Nc1ccc(NC(=O)C(C)Oc2ccc(C)nc2[N+](=O)[O-])cc1 (stereo not drawn),.,.,.,-1,0
CC(=O)C[C@@H](O)CC(=O)[C@@H]1OC(=O)CCCCCCc2ccccc21,-13,-2,3,2,112*
Cc1c(C(=O)OCC(C)(C)CN(C)C)oc2ccccc12,-18,-6,4,-2,95*
C=C[C@@H]1c2c(F)cccc2N(S(=O)(=O)c2ccc(C)cc2)[C@H](c2ccc(C(=O)OC)cc2)C1(C#N)C#N,-18,0,-3,-5,126*
C=C[C@@H]1c2c(F)cccc2N(S(=O)(=O)c2ccc(C)cc2)[C@H](c2ccc(OC(C)=O)cc2)C1(C#N)C#N,-15,-1,3,-8,9
C[C@@H]1CCCCO[C@@H](CN(C)C(=O)CCCN(C)C)[C@@H](C)CN([C@H](C)CO)C(=O)c2cc(NS(=O)(=O)c3cn(C)cn3)ccc2O1,-3,-3,11[16.7 µM],.,.
O=C(/C=C/c1ccco1)Nc1nnc(-c2ccco2)s1,.,.,.,35*,.
CCc1nnc(NC(=O)/C=C/c2ccco2)s1,.,.,.,15,.
CCOc1ccc(OCCOCCOc2c(Cl)cccc2Cl)cc1,-4,-8,-3,-1,133*
COc1ccc(C(CNC(=O)c2ccc(N3CCCC3=O)cc2)N(C)C)cc1 (stereo not drawn),-3,-3,-12,-3,84*
COC(=O)c1ccccc1COn1c(=O)c(C)[n+]([O-])c2ccccc21,-20,0,1,1,105*
Cc1cc(C)n2nc(C(=O)OCC(=O)N(CC(C)C)C3CCS(=O)(=O)C3)nc2n1 (stereo not drawn),-17,-2,-1,0,96*
CCOC(=O)N1CCN(S(=O)(=O)c2cc(OCC)ccc2OCC)CC1,-9,1,143*,-1,29
CCOc1ccc(OCC)c(S(=O)(=O)N2CCCCC2)c1,-10,-4,18,-1,-2
COc1ccc(S(=O)(=O)N(CC(=O)N2CCCCCC2)c2ccccc2OC)cc1,-4,1,11,-1,99*
C[C@@H]1CN([C@@H](C)CO)C(=O)c2cccc(NS(=O)(=O)c3ccc(F)cc3)c2O[C@@H]1CN(C)Cc1ccc(C(=O)Nc2ccccc2N)cc1,20,5,94*[16.7 µM],.,-45

# High-throughput results from PubChem BioAssay.
